Experiment: Selectivity for human CCR1 receptor over CCR4 receptor

## O=S(=O)(NCCCN1CCC(O)(c2ccc(Cl)cc2)CC1)c1ccccc1-c1ccccc1
  Selectivity ratio: > 100

Source: ChEMBL document CHEMBL1143879, “Identification of novel series of human CCR1 antagonists” (Bioorg Med Chem Lett, 2008)
